Reference: patent publication US4430324A (priority 1982, dated 1984)

How the values were obtained:
pH of solution = type: physicochemical
[1] = continuous use; well known; cited from earlier work
[2] = stability of 1000 ppm F^- solutions; details: Zn, Co several weeks, SnF2 24 hours at room temperature
[3] = fluoride ion availability, Orion-Selective Fluoride electrode

SnF2
pH values in solution (pH of solution): 3.0 | staining of teeth [1]: stains teeth, yellow to brown | stability of solution (haze/turbidity) [2]: developed turbidity | availability of F^- ion ([3]; 1000 ppm F level): 80% | availability of F^- ion ([3]; 2500 ppm F level): 45%
